From PubChem BioAssay AID2595 (National Center for Advancing Translational Sciences (NCATS), 2010)
This is a selection; strong and weak results do not stand in their true shares. Records with an inconclusive call do not appear. The source made the active and inactive calls. The call rests on the fitted dose curve; in most records, active means well fitted inhibition curve with a large enough effect; inconclusive means small, poorly fitted or top-dose-only effect, or effect the other way; inactive means flat fitted curve, though single readings scatter.

Protein sequences, listed by entry. Tags and fused reporters are not part of them. Lines headed by an entry give the natural chain unless they say otherwise; changes in a name come on top.
UniProt P04062: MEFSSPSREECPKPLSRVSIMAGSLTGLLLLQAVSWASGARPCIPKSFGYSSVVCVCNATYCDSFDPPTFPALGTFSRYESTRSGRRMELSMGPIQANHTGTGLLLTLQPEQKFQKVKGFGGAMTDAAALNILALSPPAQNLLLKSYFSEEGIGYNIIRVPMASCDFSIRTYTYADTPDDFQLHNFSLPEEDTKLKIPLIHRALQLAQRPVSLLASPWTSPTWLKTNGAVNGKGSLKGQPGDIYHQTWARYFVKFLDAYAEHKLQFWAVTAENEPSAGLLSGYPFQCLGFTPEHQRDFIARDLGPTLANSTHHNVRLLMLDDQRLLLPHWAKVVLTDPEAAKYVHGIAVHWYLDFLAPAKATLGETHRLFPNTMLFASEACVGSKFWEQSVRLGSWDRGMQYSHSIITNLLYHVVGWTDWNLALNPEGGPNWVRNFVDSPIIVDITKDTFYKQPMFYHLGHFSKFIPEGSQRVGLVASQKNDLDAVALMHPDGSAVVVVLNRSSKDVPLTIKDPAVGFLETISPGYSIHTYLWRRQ

Each molecule was assayed against Lysosomal acid glucosylceramidase (Homo sapiens) (UniProt P04062) (assay: qHTS Assay for Inhibitors and Activators of N370S glucocerebrosidase as a Potential Chaperone Treatment of Gaucher Disease: Purified Non-mutant Glucocerebrosidase). Details: purified wildtype GC, 4MU-beta-glucoside fluorescence, 40 min.
Source text: NIH Chemical Genomics Center [NCGC] NIH Molecular Libraries Probe Production Centers Network [MLPCN] MLPCN Grant: MH086442-01 Assay Submitter (PI): Wei Zheng Glucocerebrosidase (GC) catalyzes the hydrolysis of beta-glucocerebroside to glucose and ceramide in lysosomes. Mutations in the glucocerebrosidase gene result in Gaucher disease, an autosomal recessive lysosomal storage disorder. Many of the mutations encountered in patients with Gaucher disease are missense alterations that may cause misfolding, decreased stability and/or mistrafficking of this lysosomal protein. […] These inhibitors include iminosugar analogs and three non-iminosugar inhibitors identified from a previous HTS of 62,000 compounds with the wild type recombinant enzyme. However, the enhancement of enzyme activity by the chaperone action of an enzyme inhibitor must be balanced against the direct inhibition of the enzyme. An enzyme activator could also function as a chaperone by binding to the enzyme and helping to correct its misfolding and mistrafficking. While activators for GC have not yet been identified, they may have better therapeutic potential than inhibitors. Therefore the discovery and development of chemical activators may provide a new strategy for the chaperone therapy. We have optimized a new assay using N370S mutant GC derived from the spleen of a Gaucher patient. […]
NCGC Assay Protocol Summary: This is a fluorogenic enzyme assay with 4-methylumbelliferyl-beta-D-glucopyranoside as the substrate and purified wildtype glucocerebrosidase as the enzyme preparation. Upon the hydrolysis of this fluorogenic substrate, the resulting product, […] which can be detected by a standard fluorescence plate reader. […] The AC50 values were determined from concentration-response data modeled with the standard Hill equation. […] (5) Add 2 ul stop solution (1M NaOH and 1M Glycine mixture, pH 10) (6) Detect the assay plate in a ViewLux plate reader (PerkinElmer) with Ex=365 nm and Em=440nm. […]

Potency, active:
Cc1cc(N2CCOCC2)nc2ccc(NC(=O)C3CCCCC3)cc12 0.0794 µM, COc1ccc(Cl)cc1Nc1nc(NCCO)nc(N2CCCC2)n1 0.398 µM, CCc1nnc(NC(=O)c2ccc(NS(=O)(=O)c3ccccc3)cc2)s1 0.224 µM
